Measurements from patent US20150011421.

What was measured:
[1] = test system: H2N-(CH2)4-CO-(SEQ ID NO:2)-NH-CH2-Fc
[2] = test system: Z-Leu-Arg-AMC
[3] = test system: T1, Biotin-AEEEIYGEFEAKKKKC (SEQ ID NO:4)
T1 sequence: AEEEIYGEFEAKKKKC

Substance: Purified recombinant human cathepsin B (R&D Systems), activated in 5 mM DTT and 25 mM MES buffer (pH 5.0)
- (kcat/KM)·15.5 nM, difference 1/τ1-1/τ0 between tissue lysate spiked with 15.5 nM purified cathepsin B and unspiked lysate [1]: 0.00093 s⁻¹
- (kcat/KM)·15.5 nM, difference 1/τ3-1/τ2 between cathepsin B-removed MDA-MB-231 lysate spiked with 15.5 nM cathepsin B and unspiked [1]: 0.00096 s⁻¹
- (kcat/KM)·[E0] at 15.5 nM cathepsin B (slope of -dS/dt vs. S) [1]: 0.000745 s⁻¹
- (kcat/KM)·[E0] at 30.7 nM cathepsin B (regular VACNF NEA) [1]: 0.00281 s⁻¹
- (kcat/KM)·[E0] at 30.7 nM cathepsin B (slope of -dS/dt vs. S) [1]: 0.00125 s⁻¹
- (kcat/KM)·[E0] at 62.1 nM cathepsin B (slope of -dS/dt vs. S) [1]: (2.15±0.37)×10^-3 s^-1
- (kcat/Km)[E0], slope of vi vs. Γsurf, [E0]=30.7 nM [1]: a slope of 1.15×10^-3 s^-1
- decay time constant τ at 30.7 nM cathepsin B (e-beam patterned regular VACNF NEA) [1]: The fitted exponential decay time constant τ was 353 s
- decay time constant τ at 30.7 nM cathepsin B (random VACNF NEAs) [1]: 800±192 s obtained with random VACNF NEAs at the same cathepsin B concentration
- decay time constant τ of ip,acv at 15.5 nM cathepsin B (random VACNF NEA) [1]: 2940 s
- decay time constant τ of ip,acv at 30.7 nM cathepsin B (random VACNF NEA) [1]: 1290 s
- decay time constant τ of ip,acv at 62.1 nM cathepsin B (random VACNF NEA) [1]: 448 s
- specificity constant kcat/KM (ACV, average over three cathepsin B concentrations) [1]: an average value of 4.11×10^4 M^-1 s^-1 and a standard deviation of 6.66×10^3 M^-1 s^-1
- specificity constant kcat/KM (ACV, cathepsin B spiked into cathepsin B-removed MDA-MB-231 lysate) [1]: kcat/KM=6.19×10^4 M^-1 s^-1
- specificity constant kcat/KM (ACV, purified cathepsin B spiked into human breast tissue lysate) [1]: kcat/KM=6.0×10^4 M^-1 s^-1
- specificity constant kcat/KM (ACV, straight-line fit through the origin, nine experiments) [1]: (3.68±0.50)×10^4 M^-1 s^-1
- specificity constant kcat/KM (electrochemistry, EC, VACNF NEAs) [1]: 43000 M⁻¹ s⁻¹
- specificity constant kcat/Km (ACV, single experiment at 30.7 nM) [1]: 38000 M⁻¹ s⁻¹
- time constant in the fit of surface adsorbed Fc vs. time, 30.7 nM cathepsin B [1]: Γsurf=1.55×10^-15×e^(-t/683.6)-2.19×10^-19t+1.38×10^-15
- specificity constant kcat/KM (fluorescence assay, FL) [2]: 23000 M⁻¹ s⁻¹
- specificity constant kcat/KM (nine fluorescence experiments, same batch) [2]: (9.6±4.1)×10^4 M^-1 s^-1

Substance: Active c-Src kinase protein (N-terminal 6His-tagged recombinant human c-Src, molecular weight 61.7 kDa)
- change in total impedance |Z| (REIS) with 5.9 nM c-Src kinase [3]: Only a small change (<0.5%) in the total impedance value |Z| was observed with 5.9 nM of c-Src kinase
